Measured values taken from patent US20200375975A1, “Treatment of Renal Cell Carcinoma with Lenvatinib and Everolimus” (Eisai R&D Management Co., Ltd., priority 2016, published 2020).

Test system: patients with unresectable advanced or metastatic renal cell carcinoma (RCC)
Assay: Same Phase 2 trial: adverse reactions (CTCAE grades), once daily dosing;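 also: adverse events are any unwanted sign, symptom, abnormal lab finding or disease occurring in time with treatment, whether or not drug-related, and CTCAE grade expresses their severity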
Settings: combo 18 mg+5 mg; LENVIMA 24 mg; everolimus 10 mg

| SMILES | Dental and oral infections, All Grades [%] | Dental and oral infections, Grades 3-4 [%] | Fatigue, Grades 3-4 [%] | Headache, All Grades [%] | Peripheral edema, Grades 3-4 [%] | Pyrexia, Grades 3-4 [%] |
| --- | --- | --- | --- | --- | --- | --- |
| CO[C@H]1C[C@@H]2CC[C@@H](C)[C@@](O)(O2)C(=O)C(=O)N2CCCC[C@H]2C(=O)O[C@H]([C@H](C)C[C@@H]2CC[C@@H](OCCO)[C@H](OC)C2)CC(=O)[C@H](C)/C=C(\C)[C@@H](O)[C@@H](OC)C(=O)[C@H](C)C[C@H](C)/C=C/C=C/C=C/1C [Everolimus, (1R,9S,12S,15R,16E,18R,19R,21R,23 S,24E,26E,28E,30S,32S,35R)-1,18-dihydroxy-12-{(1R)-2-[(1 S,3R,4R)-4-(2-hydroxyethoxy)-3-methoxycyclohexyl]-1-methylethyl}-19,30-dimethoxy-15,17,21,23,29,35-hexamethyl-11,36-dioxa-4-aza-tricyclo[30.3.1.0^4,9]hexatriaconta-16,24,26,28-tetraene-2,3,10,14,20-pentaone] | 0 | 0 | 2 | 10 | 0 | 2 |
| COc1cc2nccc(Oc3ccc(NC(=O)NC4CC4)c(Cl)c3)c2cc1C(N)=O [LENVIMA ®, 4-[3-chloro-4-(N′-cyclopropylureido)phenoxy]-7-methoxyquinoline-6-carboxamide methanesulfonate] | 6 | 2 | 10 | 27 | 0 | 0 |
